The species entered for the test is Homo sapiens. Kind of test: Selectivity index, ratio of IC50 for recombinant human MAO-A expressed in baculovirus infected High 5 insect cells to IC50 for recombinant human MAO-B expressed in baculovirus infected High 5 insect cells. An outline of the steps: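 Recombinant human MAO-A or MAO-B (7.5 µg/mL) with kynuramine substrate in 100 mM potassium phosphate pH 7.4 (KCl-isotonic), <4% DMSO, 30 min at 37 °C. Stopped with 2 N NaOH. Single-point inhibition at 10 µM. IC50 from six-concentration sigmoidal curves, triplicate. SI = IC50(MAO-A)/IC50(MAO-B).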

The structures appear in SMILES notation. Where only a bound is given, the exact number is not on record here.

For the molecule `CCN(CC)c1ccc(/C=C/C(=O)c2ccc(OC(=O)N3CCCC3)cc2O)cc1`, the Ratio IC50 was more than 0.59.
To `O=C(/C=C/c1ccc(N2CCCCC2)cc1)c1ccc(OC(=O)N2CCCC2)cc1O` belongs more than 12.8; to `CN(C)c1ccc(/C=C/C(=O)c2ccc(OC(=O)N3CCCC3)cc2O)cc1`, more than 35.
To `O=C(/C=C/c1ccc(N2CCCC2)cc1)c1ccc(OC(=O)N2CCCC2)cc1O` belongs more than 14.1.
To `CCN(CC)C(=O)Oc1ccc(C(=O)/C=C/c2ccc(N(C)C)cc2)c(O)c1` belongs more than 0.87.
